# Reference: article PMC8779140 (Pharmaceutics, 2022)
# Target: SARS-CoV-2 3CL^pro (Severe acute respiratory syndrome coronavirus 2, UniProt P0DTD1)
# Assay type: biochemical
smiles,measurement,value
CO[C@H]1C[C@@H]2CC[C@@H](C)[C@@](O)(O2)C(=O)C(=O)N2CCCC[C@H]2C(=O)O[C@H]([C@H](C)C[C@@H]2CC[C@@H](O)[C@H](OC)C2)CC(=O)[C@H](C)/C=C(\C)[C@@H](O)[C@@H](OC)C(=O)[C@H](C)C[C@H](C)/C=C/C=C/C=C/1C [Rapamycin],inhibition of 3CL^pro (in words),did not inhibit
